Data as given in PMC11364775, “Ion occupancy of the selectivity filter controls opening of a cytoplasmic gate in the K2P channel TALK-2” (Nature Communications, 2024).

Sequences of proteins named here, by UniProt entry; tags and fusion partners are left off.
UniProt Q96T54, whole entry Q266C: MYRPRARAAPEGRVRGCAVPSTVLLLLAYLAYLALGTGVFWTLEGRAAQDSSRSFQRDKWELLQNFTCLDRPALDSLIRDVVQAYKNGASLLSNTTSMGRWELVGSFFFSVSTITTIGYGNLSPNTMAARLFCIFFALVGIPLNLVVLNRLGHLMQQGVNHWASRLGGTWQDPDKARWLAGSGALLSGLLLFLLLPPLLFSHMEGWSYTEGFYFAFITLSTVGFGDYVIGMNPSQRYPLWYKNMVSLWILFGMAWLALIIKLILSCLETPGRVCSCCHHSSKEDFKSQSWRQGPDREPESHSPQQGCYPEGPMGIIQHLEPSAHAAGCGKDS
UniProt Q96T54, whole entry L145C: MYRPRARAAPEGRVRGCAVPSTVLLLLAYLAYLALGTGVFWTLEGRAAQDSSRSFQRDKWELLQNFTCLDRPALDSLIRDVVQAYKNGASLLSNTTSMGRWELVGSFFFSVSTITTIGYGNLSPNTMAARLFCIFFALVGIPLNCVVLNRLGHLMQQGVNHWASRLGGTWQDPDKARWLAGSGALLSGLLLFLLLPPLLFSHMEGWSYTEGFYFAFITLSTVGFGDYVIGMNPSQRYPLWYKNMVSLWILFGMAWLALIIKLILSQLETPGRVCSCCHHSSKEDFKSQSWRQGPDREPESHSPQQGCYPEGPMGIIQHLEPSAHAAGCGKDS
UniProt Q96T54, whole entry L145C/V146A: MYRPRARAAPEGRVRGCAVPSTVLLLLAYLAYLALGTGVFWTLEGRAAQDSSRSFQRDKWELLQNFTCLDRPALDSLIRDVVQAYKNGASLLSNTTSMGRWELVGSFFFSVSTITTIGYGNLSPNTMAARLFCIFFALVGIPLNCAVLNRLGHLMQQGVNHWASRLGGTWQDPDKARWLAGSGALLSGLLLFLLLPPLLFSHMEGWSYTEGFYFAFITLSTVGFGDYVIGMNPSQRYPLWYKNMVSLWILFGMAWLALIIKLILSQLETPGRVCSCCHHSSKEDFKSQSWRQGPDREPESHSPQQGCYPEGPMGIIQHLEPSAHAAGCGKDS
UniProt Q96T54, whole entry L145C/L262A: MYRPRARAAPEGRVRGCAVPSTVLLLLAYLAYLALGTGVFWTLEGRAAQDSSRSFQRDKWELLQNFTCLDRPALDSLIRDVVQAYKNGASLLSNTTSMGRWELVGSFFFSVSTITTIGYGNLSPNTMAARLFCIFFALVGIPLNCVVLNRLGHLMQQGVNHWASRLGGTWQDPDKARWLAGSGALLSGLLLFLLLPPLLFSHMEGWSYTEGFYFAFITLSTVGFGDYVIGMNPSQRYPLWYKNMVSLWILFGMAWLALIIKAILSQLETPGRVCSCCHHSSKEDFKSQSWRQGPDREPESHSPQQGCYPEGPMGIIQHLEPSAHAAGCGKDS
UniProt Q96T54, whole entry L145C/W255A: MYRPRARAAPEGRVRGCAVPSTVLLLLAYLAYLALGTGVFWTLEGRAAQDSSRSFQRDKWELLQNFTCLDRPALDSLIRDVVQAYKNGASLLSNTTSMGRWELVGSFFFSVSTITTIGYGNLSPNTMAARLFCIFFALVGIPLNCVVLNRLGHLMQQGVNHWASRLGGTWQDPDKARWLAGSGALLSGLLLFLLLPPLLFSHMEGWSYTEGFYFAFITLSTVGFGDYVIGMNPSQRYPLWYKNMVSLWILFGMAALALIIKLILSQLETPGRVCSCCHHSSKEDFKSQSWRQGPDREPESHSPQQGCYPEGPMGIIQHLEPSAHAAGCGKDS
UniProt Q96T54, whole entry L145C/L264A: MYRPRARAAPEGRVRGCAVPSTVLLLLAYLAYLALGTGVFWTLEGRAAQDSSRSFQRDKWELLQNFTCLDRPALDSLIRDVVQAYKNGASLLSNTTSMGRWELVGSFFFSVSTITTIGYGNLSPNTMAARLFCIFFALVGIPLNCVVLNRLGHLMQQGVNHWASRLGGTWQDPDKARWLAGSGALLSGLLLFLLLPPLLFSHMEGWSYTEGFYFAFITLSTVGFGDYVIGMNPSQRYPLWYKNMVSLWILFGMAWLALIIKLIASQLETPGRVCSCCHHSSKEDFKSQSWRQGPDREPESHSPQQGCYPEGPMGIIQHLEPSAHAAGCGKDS

Key:
[1] = biological target: T1, TALK-2 Q266C channels (Homo sapiens, UniProt Q96T54, Q266C); assay: Inside-out patch-clamp, ligand activation of channel currents at +40 mV (oocytes)
[2] = biological target: T2, TALK-2 L145C channels (Homo sapiens, UniProt Q96T54, L145C); assay: as above
[3] = biological target: T1, TALK-2 Q266C channels; assay: Cysteine modification assay with MTS-ET (inside-out patch); settings: for time constant (τ) of MTS-ET modification: 1.0 mM MTS-ET
[4] = biological target: TALK-2 V146A/L145C (Homo sapiens, UniProt Q96T54, L145C/V146A); assay: as above; settings: +40 mV, no ligand activation
[5] = biological target: TALK-2 L262A/L145C (Homo sapiens, UniProt Q96T54, L145C/L262A); assay: as above; settings: +40 mV, no ligand activation
[6] = biological target: TALK-2 W255A/L145C (Homo sapiens, UniProt Q96T54, L145C/W255A); assay: as above; settings: +40 mV, no ligand activation
[7] = biological target: TALK-2 L264A/L145C (Homo sapiens, UniProt Q96T54, L145C/L264A); assay: as above; settings: no ligand activation, +40 mV
[8] = biological target: T2, TALK-2 L145C channels; assay: as above; settings: for time constant (τ) of MTS-ET modification: 1.0 mM MTS-ET, +40 mV; for Modification rate: TALK-2 L145C

c1ccc(-c2nn[nH]n2)c(Nc2cccc3c2CCCC3)c1 [BL-1249]
Fold activation 50 µM BL-1249 ([1]; 50 µM): 77.17 fold | Fold activation 50 µM BL-1249 ([2]; 50 µM): 94.95 fold

C[N+](C)(C)CCSS(C)(=O)=O.[Cl-] [MTS-ET]
time constant (τ) of MTS-ET modification ([3]; 5.0 μM oleoyl-CoA): 11.5 ± 2.0 s | time constant (τ) of MTS-ET modification ([3]; 1.0 mM 2-APB): 7.1 ± 0.8 s | time constant (τ) of MTS-ET modification ([3]; basal (unstimulated) state): 7.1 ± 0.7 s | effect of MTS-ET on channel currents ([3]; TALK-2 Q266C): mono-exponential and irreversible current activation | Modification rate [4]: 0.24 s⁻¹ | Modification rate [5]: 0.13 s⁻¹ | Modification rate [6]: 0.09 s⁻¹ | time constant (τ) of MTS-ET modification ([7]; 1.0 mM MTS-ET): 0.4 ± 0.1 s | Modification rate ([7]; TALK-2 L264A/L145C): 1.70 s⁻¹ | time constant (τ) of MTS-ET modification ([8]; pre-activated with 5.0 μM oleoyl-CoA): 13.5 ± 2.1 s | time constant (τ) of MTS-ET modification ([8]; pre-activated with 1.0 mM 2-APB): 12.3 ± 1.2 s | Modification rate ([8]; voltage 20 mV): 0.022 s⁻¹ | Modification rate ([8]; voltage 40 mV): 0.060 s⁻¹ | Modification rate ([8]; voltage 80 mV): 0.177 s⁻¹ | Modification rate ([8]; voltage 115 mV): 0.233 s⁻¹ | Modification rate ([8]; voltage 140 mV): 0.265 s⁻¹ | effect of MTS-ET on channel currents ([8]; currents activated by 2-APB or oleoyl-CoA): complete and irreversible current inhibition | effect of MTS-ET on channel activity ([8]; low activity basal state): no effect

[Rb+] [Rb^+]
Fold Rb+ activation [1]: 8.30 fold | Fold Rb+ activation [2]: 9.03 fold

CCCCCCCC/C=C\CCCCCCCC(=O)SCCNC(=O)CCNC(=O)[C@H](O)C(C)(C)COP(=O)(O)OP(=O)(O)OC[C@H]1O[C@@H](n2cnc3c(N)ncnc32)[C@H](O)[C@@H]1OP(=O)(O)O [oleoyl-CoA]
Fold activation 5 µM oleoyl-CoA ([1]; 5 µM): 13.63 fold | tau of modification ([8]; MTS-ET modification in the presence of 5 µM Oleoyl-CoA): 13.49 s | Fold activation 5 µM oleoyl-CoA ([2]; 5 µM): 14.99 fold
